From patent US12180221B2, “Compounds and uses thereof” (JANSSEN PHARMACEUTICA NV, priority 2018, dated 2024) come the findings set out here.

Chains of the proteins cited; added tags and fusions are not shown.
UniProt O00767, whole entry: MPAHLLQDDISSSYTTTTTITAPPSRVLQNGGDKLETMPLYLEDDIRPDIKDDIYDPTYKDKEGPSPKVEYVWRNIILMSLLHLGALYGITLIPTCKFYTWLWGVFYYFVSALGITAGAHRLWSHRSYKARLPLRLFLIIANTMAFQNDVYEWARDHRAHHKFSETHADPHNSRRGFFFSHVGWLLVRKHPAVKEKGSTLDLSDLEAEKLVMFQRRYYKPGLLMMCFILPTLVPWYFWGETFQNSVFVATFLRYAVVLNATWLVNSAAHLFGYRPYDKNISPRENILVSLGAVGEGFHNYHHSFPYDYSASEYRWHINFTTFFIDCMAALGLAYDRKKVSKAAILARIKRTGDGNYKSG
UniProt Q86SK9, whole entry: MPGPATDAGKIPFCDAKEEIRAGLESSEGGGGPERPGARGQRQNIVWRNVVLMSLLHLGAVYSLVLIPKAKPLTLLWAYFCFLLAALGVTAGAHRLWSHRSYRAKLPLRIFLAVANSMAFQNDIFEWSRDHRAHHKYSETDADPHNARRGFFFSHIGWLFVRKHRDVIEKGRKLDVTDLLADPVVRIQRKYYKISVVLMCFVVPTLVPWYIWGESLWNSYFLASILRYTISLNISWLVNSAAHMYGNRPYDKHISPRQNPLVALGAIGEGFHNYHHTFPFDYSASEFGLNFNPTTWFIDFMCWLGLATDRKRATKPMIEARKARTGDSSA

The target in assay [1] is human SCD1 (Homo sapiens, UniProt O00767). The assay can be described thus: Yeast growth assay, strain expressing human SCD1 as the sole desaturase (reduced growth as surrogate for SCD inhibition). The class given is cell-based. The following applies: read-out: SCD1 IC50, growth (OD600) after 40 h at 30° C.
Assay [2] addresses human SCD5 (Homo sapiens, UniProt Q86SK9). The assay can be described thus: Yeast growth assay, strain expressing human SCD5 as the sole desaturase (reduced growth as surrogate for SCD inhibition). The class given is cell-based. To be noted: read-out: SCD5 IC50, growth (OD600) after 40 h at 30° C.

For the molecule `CN1N=C(C(=O)Nc2ccc(Cc3ccc(Cl)c(F)c3)cn2)CCC1=O`, the concentration for half-maximal inhibition (IC50) in assay [1] worked out at 2070 nM; in assay [2] it was 20 nM.
